The values that follow come from ChEMBL document CHEMBL4842385, “Indirubin Derivatives as Dual Inhibitors Targeting Cyclin-Dependent Kinase and Histone Deacetylase for Treating Cancer” (J Med Chem, 2021).

The chains behind the UniProt entries cited, without tags or fusion partners. Where a name states a change or a piece, a line headed by the entry shows the natural chain unless it says otherwise.
UniProt P56524: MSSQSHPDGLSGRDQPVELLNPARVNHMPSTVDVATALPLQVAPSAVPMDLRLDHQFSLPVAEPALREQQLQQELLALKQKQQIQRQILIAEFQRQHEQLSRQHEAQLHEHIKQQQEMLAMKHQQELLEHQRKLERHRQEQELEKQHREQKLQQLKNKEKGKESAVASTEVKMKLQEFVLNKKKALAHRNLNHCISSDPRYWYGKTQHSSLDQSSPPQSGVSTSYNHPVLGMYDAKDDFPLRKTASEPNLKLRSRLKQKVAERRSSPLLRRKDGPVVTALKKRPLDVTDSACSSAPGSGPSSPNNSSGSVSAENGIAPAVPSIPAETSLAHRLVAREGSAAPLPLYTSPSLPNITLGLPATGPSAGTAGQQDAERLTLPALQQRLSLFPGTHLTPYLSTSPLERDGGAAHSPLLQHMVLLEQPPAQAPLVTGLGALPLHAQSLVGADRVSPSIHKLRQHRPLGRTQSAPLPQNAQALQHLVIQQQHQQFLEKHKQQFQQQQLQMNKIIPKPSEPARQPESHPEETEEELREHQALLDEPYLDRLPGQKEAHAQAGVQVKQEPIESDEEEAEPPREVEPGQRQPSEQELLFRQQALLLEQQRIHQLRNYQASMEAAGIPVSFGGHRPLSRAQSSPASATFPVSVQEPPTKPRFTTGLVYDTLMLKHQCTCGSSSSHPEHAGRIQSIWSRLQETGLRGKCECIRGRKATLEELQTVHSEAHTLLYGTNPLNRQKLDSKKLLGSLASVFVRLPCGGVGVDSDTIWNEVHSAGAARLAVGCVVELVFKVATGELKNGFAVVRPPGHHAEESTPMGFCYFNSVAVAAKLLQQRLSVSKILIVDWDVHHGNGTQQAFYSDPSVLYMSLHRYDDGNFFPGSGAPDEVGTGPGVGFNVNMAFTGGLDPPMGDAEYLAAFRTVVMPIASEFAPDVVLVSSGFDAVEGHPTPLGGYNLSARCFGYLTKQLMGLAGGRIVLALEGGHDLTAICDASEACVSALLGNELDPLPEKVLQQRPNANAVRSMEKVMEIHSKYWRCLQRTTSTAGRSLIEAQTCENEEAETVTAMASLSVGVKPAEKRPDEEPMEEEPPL

This assay deals with Histone deacetylase 4 (Homo sapiens, UniProt P56524). In words: Inhibition of HDAC4 (unknown origin) measured after 30 mins by fluorescence microplate reader assay.

Structures are written as SMILES.

As to `CN1CCc2c(c3ccccc3n2Cc2ccc(C(=O)NO)cc2)C1` [TUBASTATIN A], the IC50 is over 5 µM.
